Earlier results on one substance are cited in patent US9675617B2, “Tetrahydrofolates in combination with EGFR-inhibitors” (ISOFOL MEDICAL AB, priority 2012, dated 2017).

The conditions of the series: in the body; no source or species given; cited from earlier work.

For the substance 5,6,7,8-tetrahydrofolate [THF], the half life result is recorded as “approximately 30 min”.
